From patent US11344539B2, “Therapeutic or prophylactic drug for dementia” (dated 2022)

Tests used:
[1] = test system: Alzheimer's disease double transgenic mouse model, Tg (APPSWE) 2576KhaTg (Prnp-MAPT*P301L) JNPL3HImc; assay: Number of senile plaques by size (HE, Aβ40 and Aβ42 staining) in the Alzheimer's disease double transgenic mouse model
[2] = test system: Alzheimer's disease double transgenic mouse model, Tg (APPSWE) 2576KhaTg (Prnp-MAPT*P301L) JNPL3HImc; assay: Number of nerve cells with AT8 immunostaining-positive neurofibrillary tangles in the Alzheimer's disease double transgenic mouse model

Cc1nc(-c2ccc(OCC(C)C)c(C#N)c2)sc1C(=O)O
number of the small senile plaques ([1]; diameter 50 μm or less, 5 mg/kg orally once a day from one year old, sampled at 690-700 days, mean±standard error, n=5): 148.5±13.2 | number of the medium senile plaques ([1]; diameter 50 μm to 100 μm, 5 mg/kg orally once a day from one year old, sampled at 690-700 days, mean±standard error, n=5): 31.2±3.9 | number of large senile plaques in the cerebrum 1 coronal section ([1]; diameter 100 μm or more, 5 mg/kg orally once a day from one year old, sampled at 690-700 days, mean±standard error, n=5): 7.9±1.3 | number of medium senile plaques compared to the control group ([1]; p=0.006, Mann-Whitney U test, 5 mg/kg orally once a day): significant decrease | number of large senile plaques compared to the control group ([1]; p=0.033, Mann-Whitney U test, 5 mg/kg orally once a day): significant decrease | number of small senile plaques compared to the control group ([1]; p=0.055, Mann-Whitney U test, 5 mg/kg orally once a day): no significant difference | nerve cells with AT8 immunostaining-positive neurofibrillary tangles in the cerebrum 1 coronal section ([2]; coronal section including hypothalamus and amygdaloid nucleus, 5 mg/kg orally once a day from one year old, sampled at 690-700 days, mean±standard error, n=5): 70.2±32.8 | number of nerve cells with AT8 immunostaining-positive neurofibrillary tangles compared to the control group ([2]; p=0.014, Kruskal-Wallis test, 5 mg/kg orally once a day): decreased significantly
